The target of this test is T1, purified recombinant HIV-1 reverse transcriptase (Human immunodeficiency virus type 1 group M subtype B, UniProt P04585).
T1 construct: purified recombinant HIV-1 reverse transcriptase; made in house; host or cells: Escherichia coli
The experiment in a line: reverse transcriptase inhibition, poly(rA)/(dT) template primer, [3H]dTTP uptake. The format is biochemical.

The structures appear in SMILES notation.

A word on the IC50: it is the point on the concentration scale where inhibition reaches its midpoint.

Take `CC(C)c1nc(COC(N)=O)n(Cc2ccccn2)c1Sc1cc(Cl)cc(Cl)c1` [Compound I-93]: the IC50 was 1.09 µM.

The values above are taken from patent publication US6147097A, “Imidazole derivatives as anti-HIV agents” (Shionogi & Co., Ltd., priority 1994, dated 2000).
